Experimental data published in EP2340832A1, “Morphinan-6-one compounds for the treatment or prevention of neurodegenerative diseases” (Universität Innsbruck, priority 2009, dated 2011).

The chains behind the UniProt entries cited, without tags or fusion partners. Where a name states a change or a piece, a line headed by the entry shows the natural chain unless it says otherwise.
UniProt P41144: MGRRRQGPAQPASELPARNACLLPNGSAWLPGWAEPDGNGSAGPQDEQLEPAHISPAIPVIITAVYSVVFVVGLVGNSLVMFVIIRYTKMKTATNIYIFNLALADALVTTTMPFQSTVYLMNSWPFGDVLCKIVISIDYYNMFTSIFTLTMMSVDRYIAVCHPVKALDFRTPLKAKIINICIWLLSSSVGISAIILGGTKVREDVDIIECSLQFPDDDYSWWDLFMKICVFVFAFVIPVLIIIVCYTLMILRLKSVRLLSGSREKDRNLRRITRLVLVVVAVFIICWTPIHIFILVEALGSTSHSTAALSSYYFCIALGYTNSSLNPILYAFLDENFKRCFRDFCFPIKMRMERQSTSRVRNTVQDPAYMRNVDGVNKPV

Target: K receptor (Cavia porcellus, UniProt P41144)
Assay: [35S]GTPγS functional assay, guinea pig brain membranes, κ receptor
Type: biochemical
Conditions: read-out: EC50, stimulation of [35S]GTPγS binding; guinea pig brain preparations

Question: `CN(C(=O)Cc1ccccc1)[C@H]1CC[C@@]2(CCCO2)C[C@@H]1N1CCCC1` was tested. Which EC50 did it give?
Answer: 60.7 nM
